Experimental data taken from article PMC5199614 (Journal of bone and mineral research : the official journal …, 2016).

Test: Persistence of injected ligand in mouse blood and urine
Settings: mice, iv 50 nmol/kg

## [Lys^13(tetramethyl rhodamine {TMR}), Cys^35(PEG-20,000 Da)]PTH(1-35) [PEG-PTH^TMR]
Spot urine
  TMR fluorescence in urine, versus PTH^TMR: less TMR fluorescence detected in the urine
1 μL plasma in PBS, TMR fluorescence, n = 6
  last time point at which plasma TMR fluorescence was detected: ≥ 8 h
cAMP bioassay and TMR fluorescence of blood
  persistence (detectability) in the circulation after injection: > 24 h
